The entries are a selection whose mix differs from that of the whole data set. Active and inactive are the calls of the source.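 Rule for the calls: active = inhibition at or above 60%; inconclusive = inhibition from 0% up to below 60%; inactive = no inhibition observed.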

This assay can be described thus: qHTS Assay for Small Molecule Inhibitors of Mitochondrial Division or Activators of Mitochondrial Fusion: Hit Validation in Malachite Green Assay.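 Note: plate controls were DMSO wells with GTPase for no effect and protein-free buffer wells for full effect.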 As to conditions: purified GTPase, malachite green phosphate release, A650; stronger effect = higher value. The source says:
The budding yeast S. cerevisiae is a powerful system to study mitochondrial fusion. Unlike other organisms, yeast cells without functional mitochondrial DNA (mtDNA) can be propagated and studied as long as they maintain a mitochondrial compartment and are provided with a fermentable carbon source. When mitochondrial fusion is blocked in yeast, mitochondrial tubules rapidly fragment and division continues unopposed. Under conditions where fusion is compromised in mammalian cells, nearly identical changes in mitochondrial structure have been observed. Thus, these findings indicate that steady state mitochondrial structure in cells is a characteristic and specific indicator of fusion activity. Mounting evidence has pointed to a connection between mitochondrial dynamics and apoptosis in mammalian cells. These studies indicate that in mammalian cells mitochondrial dynamics are more integrated into cellular processes than in yeast cells and have evolved not only to distribute the organelle but also to aid in the regulation of cellular homeostasis. Mitochondrial fusion proteins attenuate apoptosis by inhibiting the release of cytochrome c from mitochondria, in part by controlling cristae structures. […]
In general terms: In qHTS, concentration-response curves come from the screen itself.
`O=[N+]([O-])c1cc([N+](=O)[O-])c(-c2ccn[nH]2)s1`: the inhibition was active: 98.7%.

A word on the inhibition: it is the percentage by which the read-out fell short of the control.

The values are drawn from PubChem BioAssay AID602289 (National Center for Advancing Translational Sciences (NCATS), 2012).
